Results: ChEMBL document CHEMBL3397030, “Synthesis and biological evaluation of 3-phenyl-3-aryl carboxamido propanoic acid derivatives as small molecule inhibitors of retinoic acid 4-hydroxylase (CYP26A1)” (Bioorg Med Chem, 2015)

Target: T1, Cytochrome P450 26A1 (Homo sapiens, UniProt O43174)
T1 sequence (O43174 whole entry): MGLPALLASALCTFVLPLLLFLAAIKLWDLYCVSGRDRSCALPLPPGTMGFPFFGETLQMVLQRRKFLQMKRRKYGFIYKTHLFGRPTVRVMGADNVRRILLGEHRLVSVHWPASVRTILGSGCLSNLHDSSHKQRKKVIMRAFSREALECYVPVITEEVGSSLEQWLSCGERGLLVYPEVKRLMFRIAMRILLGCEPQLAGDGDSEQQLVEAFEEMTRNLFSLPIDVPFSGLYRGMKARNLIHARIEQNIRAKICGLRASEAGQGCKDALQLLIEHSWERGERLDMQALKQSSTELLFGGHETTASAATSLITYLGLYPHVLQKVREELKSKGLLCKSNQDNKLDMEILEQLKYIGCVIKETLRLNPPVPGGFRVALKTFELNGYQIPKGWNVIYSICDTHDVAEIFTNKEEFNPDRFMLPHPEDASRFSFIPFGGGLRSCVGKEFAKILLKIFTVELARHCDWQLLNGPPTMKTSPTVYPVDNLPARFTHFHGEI
Assay: Inhibition of CYP26A1 in ATRA-induced human HL60 cell microsomes incubated for 30 mins using ATRA and NADPH by HPLC method
Assay type: cell-based, HL-60

IC50: 2450 nM
Compound: Clc1cccc(C(c2ccc3[nH]cnc3c2)n2ccnc2)c1 (stereo unspecified) [LIAROZOLE]
